## Yeast mating assay B: variants of the scFv Ab-14

Target peptide (SARS-CoV-2 spike, HR2 region): PDVDLGDISGINAS

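The parent was found by panning a naive human phage display library on the peptide. These sequences belong to a second round, designed from the earlier measurements on random variants of the parent. Several design methods are mixed in this list. Affinity was read by AlphaSeq, a pooled yeast mating assay with surface-displayed partners. After mating in shaken culture at 30 °C for 16 h, diploids were selected and their barcode pairs sequenced. The ratio of observed to expected reads was calibrated, replicate by replicate, on BCL2-family standards whose Kd was known from biolayer interferometry. The assay was run in six technical replicates.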

Parent scFv Ab-14: VH joined to VL by the linker GGGGSGGGGSGGGGS. Changes lie in the light chain CDRs alone.
VH: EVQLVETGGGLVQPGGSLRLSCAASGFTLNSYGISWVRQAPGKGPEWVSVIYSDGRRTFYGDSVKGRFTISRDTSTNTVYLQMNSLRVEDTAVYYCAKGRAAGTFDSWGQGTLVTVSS
VL: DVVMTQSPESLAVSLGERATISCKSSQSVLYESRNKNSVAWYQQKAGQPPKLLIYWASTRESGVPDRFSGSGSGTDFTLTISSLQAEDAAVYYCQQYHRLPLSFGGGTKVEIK

Each variant is given by its three light chain CDRs, as the data file delimits them; those of the parent are KSSQSVLYESRNKNSVA, WASTRES, QQYHRLPLS.
Variants here have at most six changes.
Scale: log10 of Kd in nM, estimated from mating counts; low values are strong binders.
"ND" marks a missing value. The strain was present, yet no cells mated with the target were sequenced in that replicate, which points to weak or no binding.
In the paper, a design with two or fewer of six values counts as a poor binder.
A sequence measured in both rounds can read differently, since the two assays cover different ranges.
Empty control strains, which show no peptide, gave a signal in 4% of pairings with all light chain designs; the median was 2.64 and 95% of these signals were weaker than 1.59. No background was subtracted. Also given: how often the same scFv was detected with the empty control strains.

Variant KISQSVLMESRNCNSVA / DASTRES / QQYVRLPLS gave 0.12, 0.18, -0.08, -0.14, -0.03, 0.19 (controls 0 of 18).
Variant KSTQSVLYEMRNKNSVA / WASTRES / QQYHRLPLS gave -0.27, -0.27, -0.60, -0.55, -0.27, -0.56 (controls 0 of 18).
Variant KSSQSVLYESRNKNSVA / WASTRES / QQYHHLPLS gave 1.99, 2.19, 1.68, ND, 1.56, 2.45 (controls 0 of 18).
Variant KLSQSVLYESRNVNSVA / HASTRES / QQYHRLPLS gave 0.19, 0.39, 0.13, 0.36, 0.39, 0.46 (controls 4 of 18).
Variant SLMQSVLYESRNKNSVA / NASLRED / QQYHRLPLS gave -0.30, -0.30, -0.46, -0.42, -0.54, -0.37 (controls 0 of 18).
Variant KSSQSVLKESDNKNSVA / WASTRSS / QQYHRLPLS gave 0.95, 0.59, 0.45, 0.27, 0.25, 0.82 (controls 0 of 18).
Variant KSLQSGLYESRNKNSVA / HASTRED / QQYGRLPLS gave 1.29, 0.91, -0.07, 0.47, 1.47, 0.72 (controls 0 of 18).
Variant KSSQSVPYESRNKNSVA / WASTRES / QQLHRLPLS gave ND, ND, ND, ND, ND, ND (controls 0 of 18).
Variant KSLQSVLYESRNKNVVA / HASTRED / QQYHRLPLS gave 0.87, 0.92, 0.93, 0.38, 0.96, 1.22 (controls 0 of 18).
Variant KVMQSVLYESRNKNSVA / NASTREL / QQYHRLPLS gave 0.17, -0.49, 0.07, -0.24, -0.13, 0.17 (controls 0 of 18).
Variant KISQSVLYESTNKNSVA / WASTRES / PQYHRLPLS gave ND, ND, ND, 0.53, 0.58, ND (controls 0 of 18).
Variant KSSQSVLYESRNKNNVA / WASTRES / QQYHRLPLS gave ND, ND, ND, ND, ND, ND (controls 0 of 18).
Variant KLPWSTLYESRNKNSVA / NASTRES / QQYHRLPLS gave -0.26, -0.48, -0.59, -0.51, -0.50, -0.21 (controls 1 of 18).
Variant KSSQSVLEEQRNKNSVA / RASTRES / QQYHVLPLS gave ND, ND, 1.35, 1.29, 1.70, 1.76 (controls 1 of 18).
Variant KSSGSWLYESRNKNSVA / GASFRES / QQYHRLPLS gave 0.31, 0.05, 0.27, 0.28, 0.30, 0.34 (controls 2 of 18).
Variant KSSWSELYESRNKNSVA / DASTRES / QQYHRLPLS gave -0.31, -0.30, -0.71, -0.52, -0.42, -0.48 (controls 2 of 18).
Variant KSSQMVLYESNNKNSVA / WASTRES / QQYHRLPLS gave 2.68, 2.35, 1.92, 1.50, 2.13, 2.36 (controls 1 of 18).
Variant KSSQSVLYESRNLNSVA / SASTRES / QQAHRLPLS gave ND, ND, ND, ND, ND, ND (controls 0 of 18).
Variant KSSSSKLYESRNFNSVA / SASTRES / QQYHRLPLS gave 1.21, 1.04, 0.87, 0.80, 1.43, 1.44 (controls 1 of 18).
Variant KQSQAVLYESRNKNSVA / DANTRES / QQYHRLPLS gave 0.11, -0.04, 0.07, 0.28, 0.05, 0.27 (controls 2 of 18).
Variant KLSQSELYESRNKNNVA / SASTRES / QQYHRLPLS gave -0.39, -0.36, -0.20, -0.25, -0.03, -0.15 (controls 1 of 18).
Variant KSSQTVLYESRNKNSVA / DASTRES / QQYHRLPPS gave -0.39, -0.08, -0.77, -0.51, 0.09, -0.37 (controls 0 of 18).
Variant KLSQSEEYESRNKNSVA / NASQRES / QQYHRLPLS gave 0.10, -0.09, -0.15, -0.34, -0.22, -0.12 (controls 1 of 18).
Variant KSSHSVLYESRNKNSVA / WASTRES / QQYHRLPLS gave ND, 1.28, 1.14, ND, 2.68, 1.66 (controls 1 of 18).
Variant KSSDSVLYESRNKNSVA / WASTREW / QQYHYLPLS gave ND, ND, ND, ND, ND, ND (controls 0 of 18).
Variant KMSQSVLYESRNKNSIA / WASTRES / PQYHRLPLS gave ND, ND, ND, ND, ND, ND (controls 0 of 18).
Variant KSSQSVLYESRNANSVA / WASTREQ / QQCARLPLS gave ND, ND, ND, ND, ND, ND (controls 0 of 18).
Variant KSSQSVLDESTNKNSVA / EASTRES / QQYFRLPLS gave 0.57, 0.29, 0.19, 0.18, 0.23, 0.38 (controls 0 of 18).
Variant KLSQSYLYESRNPNSVA / NASTRES / QQYHRLPLS gave -0.28, -0.28, -0.31, -0.51, -0.36, -0.25 (controls 0 of 18).
Variant KSSQSLLYESRNKNAVA / YAKTRES / QQYHRLPLS gave 0.62, 0.67, 0.85, 0.75, 0.71, 1.20 (controls 0 of 18).
Variant KVSISWLYESRNKNSVA / WASTRES / QQYDRLPLS gave 2.86, ND, ND, ND, 1.87, 2.71 (controls 0 of 18).
Variant KSEQSVLDEERNDNSVA / WASHRLS / QQYHRLPLS gave ND, 2.32, ND, 2.02, 1.49, ND (controls 0 of 18).
Variant KSDQSVLYESRNKNSVA / WASTRES / QQYHRLPSS gave ND, ND, ND, ND, ND, ND (controls 0 of 18).
Variant KLRQSTKYESRNQNSVA / YASTRES / QQYHRLPLS gave 1.12, 1.08, 0.54, 0.76, 0.75, 0.81 (controls 1 of 18).
Variant VSSQSGLDESRNKNSVA / WASTRES / QQYHRLPLS gave 1.77, 2.46, 1.81, 1.77, 2.00, 2.31 (controls 2 of 18).
Variant KSSQSLLYESRNKNSVA / WASTRES / QQYFRLPLS gave 1.60, 1.19, 1.47, 1.67, 2.05, 0.86 (controls 0 of 18).
Variant KVSISELLESRNKNSVA / EASTRES / QQYHRLPLS gave 0.00, 0.19, -0.16, 0.01, 0.15, 0.28 (controls 1 of 18).
Variant KFSHSVLYESRNKNSVA / EASTRES / QSYDRLPLS gave 0.90, 0.61, 0.26, 0.42, 0.39, 0.47 (controls 0 of 18).
Variant KSSQSVLMESRNKNSVA / WASTRED / QQYHRLFLS gave ND, ND, ND, ND, ND, ND (controls 0 of 18).
Variant KSLQSKLYESRNKNSVA / HASTRED / QQYHQLPLS gave 0.23, -0.02, 0.24, 0.22, 0.23, 0.35 (controls 1 of 18).
Variant HLSGSVLYESRNKNSVA / NASTRES / QQYHRLPLN gave 0.74, 0.66, 0.34, 0.74, 0.89, 0.61 (controls 0 of 18).
Variant KLAQSELYESRNKNSVA / NASTRES / QQYHRLPLS gave 0.27, -0.05, -0.11, -0.09, -0.32, -0.08 (controls 1 of 18).
Variant KSSASHLYESRNANSVA / NASTRES / QQYHRGPLS gave ND, ND, ND, ND, ND, ND (controls 0 of 18).
Variant KSSQSVLYESRNKNSVA / SASTRES / QQGHRLPLS gave ND, ND, ND, ND, 2.04, ND (controls 0 of 18).

From the list, the first 5 with no signal in any replicate:

| CDR-L1 | CDR-L2 | CDR-L3 | log10 Kd (nM) by replicate | signal with controls |
|---|---|---|---|---|
| KSSQSVPYESRNKNSVA | WASTRES | QQLHRLPLS | ND, ND, ND, ND, ND, ND | 0 of 18 |
| KSSQSVLYESRNKNNVA | WASTRES | QQYHRLPLS | ND, ND, ND, ND, ND, ND | 0 of 18 |
| KSSQSVLYESRNLNSVA | SASTRES | QQAHRLPLS | ND, ND, ND, ND, ND, ND | 0 of 18 |
| KSSDSVLYESRNKNSVA | WASTREW | QQYHYLPLS | ND, ND, ND, ND, ND, ND | 0 of 18 |
| KMSQSVLYESRNKNSIA | WASTRES | PQYHRLPLS | ND, ND, ND, ND, ND, ND | 0 of 18 |

Data: MIT Lincoln Laboratory AlphaSeq set, Li et al. 2023, doi:10.1038/s41467-023-39022-2, as distributed in FLAb.